≈ marks a conversion by molar mass, not a printed value.

The results in this text go back to patent US7871982B2, “Lincomycin derivatives and antimicrobial agents comprising the same as active ingredient” (Meiji Seika Kaisha, Ltd., priority 2005, dated 2011).

Common to all, as to assay: Antimicrobial activity, MIC against pneumococci (agar dilution)
Type in all cases: cell-based

In experiment [1] the test system is S. pneumoniae TH-96. The conditions noted are these: Streptococcus pneumoniae, TH96, read-out: minimal inhibitory concentration (MIC). Here is the method:
(§1) For representative compounds among lincomycin derivatives according to the present invention, the minimal inhibitory concentration (MIC, μg/ml) against various pneumococci was measured according to the method described in CHEMOTHERAPY, vol. 16, No. 1, 99, 1968. Sensitivity disk agar-N+5% horse blood was used as the medium for the measurement. The amount of bacteria inoculated was 10^6 CFU/ml. In Table 1, CLDM represents clindamycin.

In experiment [2] the test system is S. pneumoniae 225. The conditions noted are these: Streptococcus pneumoniae, 225, read-out: minimal inhibitory concentration (MIC). Here is the method:
as §1

The subject of experiment [3] is S. pneumoniae IP692. The conditions noted are these: Streptococcus pneumoniae, IP692, read-out: minimal inhibitory concentration (MIC). Here is the method: as §1
Experiment [4] deals with S. pneumoniae 1913. The conditions noted are these: Streptococcus pneumoniae, 1913, read-out: minimal inhibitory concentration (MIC). Here is the method:
as §1

The subject of experiment [5] is S. pneumoniae PRC-53. The conditions noted are these: Streptococcus pneumoniae, PRC53, read-out: minimal inhibitory concentration (MIC). As to the method:
as §1

The subject of experiment [6] is S. pneumoniae TH-662. The conditions noted are these: Streptococcus pneumoniae, TH662, read-out: minimal inhibitory concentration (MIC). As to the method: as §1
Experiment [7] has as its system S. pneumoniae PRC-206. The conditions noted are these: Streptococcus pneumoniae, PRC206, read-out: minimal inhibitory concentration (MIC). Here is the method: as §1
The subject of experiment [8] is S. pneumoniae 1820. The conditions noted are these: Streptococcus pneumoniae, 1820, read-out: minimal inhibitory concentration (MIC). Here is the method: as §1
Experiment [9] deals with S. pneumoniae DPI Type[…]. The conditions noted are these: Streptococcus pneumoniae, read-out: minimal inhibitory concentration (MIC). As to the method:
as §1

The subject of experiment [10] is S. pneumoniae PRC0-91. The conditions noted are these: Streptococcus pneumoniae, PRC091, read-out: minimal inhibitory concentration (MIC). Here is the method:
as §1

`CCC[C@@H]1C[C@@H](C(=O)N[C@@H]([C@H]2O[C@H](SC)[C@H](O)[C@@H](O)[C@H]2O)[C@H](C)Cl)N(C)C1` [CLDM, clindamycin, reference compound]: the MIC is 0.13 µg/mL (≈ 0.306 µM) in [1]; 256 µg/mL (≈ 602 µM) in [2]; 0.13 µg/mL (≈ 0.306 µM) in [3]; 256 µg/mL (≈ 602 µM) in experiment [4]; 0.13 µg/mL (≈ 0.306 µM) in [5]; 256 µg/mL (≈ 602 µM) in [6]. In addition, the MIC in experiment [7] amounted to 256 µg/mL (≈ 602 µM); in [8], 256 µg/mL (≈ 602 µM); in experiment [9] it was 0.13 µg/mL (≈ 0.306 µM); in [10], 256 µg/mL (≈ 602 µM).
